Structures can show the parent of a compound that is named as a salt.

Protein sequences, listed by entry. Tags and fused reporters are not part of them.
UniProt Q9WTR4, whole entry: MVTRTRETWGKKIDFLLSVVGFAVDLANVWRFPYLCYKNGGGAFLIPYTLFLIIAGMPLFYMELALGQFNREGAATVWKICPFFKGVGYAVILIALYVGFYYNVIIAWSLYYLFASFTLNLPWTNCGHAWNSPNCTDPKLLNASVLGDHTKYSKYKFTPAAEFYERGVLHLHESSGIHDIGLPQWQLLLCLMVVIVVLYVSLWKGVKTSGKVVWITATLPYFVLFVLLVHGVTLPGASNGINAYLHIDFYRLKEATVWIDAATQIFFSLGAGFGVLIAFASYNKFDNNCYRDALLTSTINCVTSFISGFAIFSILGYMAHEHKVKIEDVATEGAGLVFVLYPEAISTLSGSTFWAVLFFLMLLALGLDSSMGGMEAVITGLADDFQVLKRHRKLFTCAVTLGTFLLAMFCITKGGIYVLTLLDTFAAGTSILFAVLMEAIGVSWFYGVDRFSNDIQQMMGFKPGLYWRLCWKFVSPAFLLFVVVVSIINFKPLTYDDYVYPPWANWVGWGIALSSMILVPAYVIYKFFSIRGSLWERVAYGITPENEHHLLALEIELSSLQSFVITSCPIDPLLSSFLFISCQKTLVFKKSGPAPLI
UniProt P31652, whole entry: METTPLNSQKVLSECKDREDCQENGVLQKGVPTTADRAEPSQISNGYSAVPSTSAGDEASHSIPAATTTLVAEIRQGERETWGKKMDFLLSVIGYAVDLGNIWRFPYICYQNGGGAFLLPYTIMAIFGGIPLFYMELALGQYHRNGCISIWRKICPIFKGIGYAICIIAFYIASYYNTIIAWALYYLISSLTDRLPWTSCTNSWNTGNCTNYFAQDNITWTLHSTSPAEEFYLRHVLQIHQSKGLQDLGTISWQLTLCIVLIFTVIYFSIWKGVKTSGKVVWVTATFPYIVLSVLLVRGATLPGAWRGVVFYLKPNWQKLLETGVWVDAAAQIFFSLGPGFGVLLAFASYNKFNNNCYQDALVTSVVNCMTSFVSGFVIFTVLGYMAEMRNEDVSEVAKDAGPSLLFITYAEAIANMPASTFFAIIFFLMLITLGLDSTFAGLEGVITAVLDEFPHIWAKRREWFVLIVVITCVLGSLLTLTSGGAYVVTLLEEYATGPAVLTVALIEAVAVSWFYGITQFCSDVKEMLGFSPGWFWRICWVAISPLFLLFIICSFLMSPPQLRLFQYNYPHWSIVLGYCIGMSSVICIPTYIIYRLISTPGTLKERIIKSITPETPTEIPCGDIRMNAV
UniProt P23977, whole entry: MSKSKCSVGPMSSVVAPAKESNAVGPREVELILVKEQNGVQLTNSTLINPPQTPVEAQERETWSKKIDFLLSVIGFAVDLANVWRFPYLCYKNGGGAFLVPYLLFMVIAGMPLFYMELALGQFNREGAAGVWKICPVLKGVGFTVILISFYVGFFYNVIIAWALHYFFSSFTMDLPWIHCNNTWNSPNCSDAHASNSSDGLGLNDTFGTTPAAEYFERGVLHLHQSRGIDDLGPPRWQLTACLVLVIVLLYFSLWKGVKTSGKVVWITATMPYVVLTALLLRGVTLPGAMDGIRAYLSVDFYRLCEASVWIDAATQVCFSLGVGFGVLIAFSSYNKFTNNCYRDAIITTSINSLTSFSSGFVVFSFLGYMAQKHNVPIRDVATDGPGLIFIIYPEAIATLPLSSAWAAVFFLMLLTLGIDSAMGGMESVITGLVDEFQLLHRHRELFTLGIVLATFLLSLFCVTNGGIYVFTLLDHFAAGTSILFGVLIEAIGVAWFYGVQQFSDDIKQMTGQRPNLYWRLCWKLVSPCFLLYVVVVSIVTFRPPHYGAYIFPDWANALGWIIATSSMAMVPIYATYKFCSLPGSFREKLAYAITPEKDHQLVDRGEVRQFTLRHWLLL

The target of test [1] is Norepinephrine transporter (Rattus norvegicus, UniProt Q9WTR4). Format: functional, tissue-based, Hypothalamus.
In test [2] the target is Sodium-dependent serotonin transporter (Rattus norvegicus, UniProt P31652). It is filed as functional.
In test [3] the target is Sodium-dependent dopamine transporter (Rattus norvegicus, UniProt P23977). Format: functional, tissue-based, Striatum.

In test [1], `CN[C@H]1CC[C@@H](c2ccc(Cl)cc2Cl)c2ccccc21` gave an IC50 of 310 nM. Consider `CN[C@H]1CC[C@@H](c2ccccc2OC)c2ccccc21`, for which half-maximal inhibition in test [2] (IC50) required 4200 nM.

`CN[C@H]1CC[C@@H](c2cccc(OC)c2)c2ccccc21` displayed an IC50 in test [2] of 760 nM. The same measure, in the same setting: the result for `CN[C@@H]1CC[C@@H](c2ccccc2)c2ccccc21` (stereo in doubt; 45) [TAMETRALINE] reads 14000 nM. Still for that read-out and setting: the result for `N[C@H]1CC[C@@H](c2cccc(C(F)(F)F)c2)c2ccccc21` reads 4100 nM. With `CN(C)[C@H]1CC[C@@H](c2ccc(Cl)c(Cl)c2)c2ccccc21`, the IC50 in test [1] is 400 nM; in test [2], 70 nM.

Regarding `CN[C@@H]1CC[C@@H](c2ccccc2)c2ccccc21` [TAMETRALINE HYDROCHLORIDE], half-maximal inhibition in test [2] (IC50) was put at 1480 nM. Still for that read-out and setting: then `CN(C)[C@H]1CC[C@@H](c2cccc(C(F)(F)F)c2)c2ccccc21`, with 190 nM; and `CN[C@H]1CC[C@@H](c2cccc(C(F)(F)F)c2)c2ccccc21` (stereo in doubt; 56), with 200 nM. `CN[C@H]1CC[C@@H](c2ccc(Br)cc2)c2ccccc21` had an IC50 in test [2] of 190 nM. The same measure, in the same setting: then `CN1Cc2c(N)cccc2C(c2ccccc2)C1` (centres undefined) [NOMIFENSINE], with 5400 nM; and `CN[C@@H]1CC[C@@H](c2cccc(OC)c2)c2ccccc21`, with 340 nM; and `CN[C@H]1CC[C@@H](c2cccc(C(F)(F)F)c2)c2ccccc21` (stereo in doubt; 57), with 3100 nM. Same read-out and setting: then `CN(C)[C@@H]1CC[C@@H](c2cccc(C(F)(F)F)c2)c2ccccc21`, with 220 nM. As to `CN[C@@H]1CC[C@@H](c2ccc(Br)cc2)c2ccccc21`, the IC50 in test [2] was 90 nM.

As for `CN(C)[C@H]1CC[C@@H](c2ccccc2)c2ccccc21`, in test [2], 1600 nM corresponded to half-maximal inhibition (IC50). For the compound `CN[C@H]1CC[C@@H](c2ccc(F)c(OC)c2)c2ccccc21`, the concentration for half-maximal inhibition (IC50) in test [2] came out at 380 nM.

`CN[C@H]1CC[C@@H](c2ccccc2)c2ccccc21` (stereo in doubt; 50) showed an IC50 in test [2] of 3500 nM. On to `CN[C@H]1CC[C@@H](c2ccc(C(F)(F)F)cc2)c2ccccc21`, for which the IC50 in test [2] worked out at 820 nM.

In test [2], `CN[C@H]1CC[C@@H](c2ccccc2)c2ccccc21` had an IC50 of 3500 nM. The same measure, in the same setting: the result for `CN[C@@H]1CC[C@@H](c2ccccc2)c2ccccc21` (stereo in doubt; 44) [TAMETRALINE] reads 840 nM; that for `CN[C@H]1CC[C@@H](c2ccccc2)c2ccccc21` (stereo in doubt; 51), 11600 nM. In the case of `CCCCOc1ccc([C@@H]2CC[C@@H](NC)c3ccccc32)cc1`, the figures for the IC50 in test [3] and in test [2] were 6800 nM and 7000 nM, respectively.

As for `CN[C@@H]1CC[C@@H](c2ccc(F)c(OC)c2)c2ccccc21`, the midpoint of inhibition in test [2], the IC50, lay at 600 nM.

Regarding `CN[C@@H]1CC[C@@H](c2ccccc2OC)c2ccccc21`, 4500 nM corresponded to half-maximal inhibition in test [2] (IC50). On the same count and under the same terms, the result for `N[C@H]1CC[C@@H](c2ccc(Cl)c(Cl)c2)c2ccccc21` reads 400 nM. The same measure, in the same setting: then `CN[C@H]1CC[C@@H](c2ccc(Oc3ccccc3)cc2)c2ccccc21`, with 9400 nM; and `N[C@H]1CC[C@@H](c2ccc(C(F)(F)F)cc2)c2ccccc21`, with 5600 nM; and `CN[C@H]1CC[C@@H](c2cccc(C(F)(F)F)c2)c2ccccc21`, with 250 nM.

In the case of `CN[C@@H]1CC[C@@H](c2ccc(Oc3ccccc3)cc2)c2ccccc21`, in test [2], the IC50 was 12000 nM.

In the case of `CCCCOc1ccc([C@@H]2CC[C@H](NC)c3ccccc32)cc1`, the IC50 was found to be 12500 nM in test [3] and 5800 nM in test [2].

As usually defined, the IC50 is the point on the concentration scale where inhibition reaches its midpoint. Higher therefore signals lower potency.

Values taken from ChEMBL document CHEMBL1122801, “Nontricyclic antidepressant agents derived from cis- and trans-1-amino-4-aryltetralins” (J Med Chem, 1984).
